Assay results published in ChEMBL document CHEMBL1124781.

By UniProt entry, the sequences of proteins in these tests, tags left out.
UniProt P32300, whole entry, looked up: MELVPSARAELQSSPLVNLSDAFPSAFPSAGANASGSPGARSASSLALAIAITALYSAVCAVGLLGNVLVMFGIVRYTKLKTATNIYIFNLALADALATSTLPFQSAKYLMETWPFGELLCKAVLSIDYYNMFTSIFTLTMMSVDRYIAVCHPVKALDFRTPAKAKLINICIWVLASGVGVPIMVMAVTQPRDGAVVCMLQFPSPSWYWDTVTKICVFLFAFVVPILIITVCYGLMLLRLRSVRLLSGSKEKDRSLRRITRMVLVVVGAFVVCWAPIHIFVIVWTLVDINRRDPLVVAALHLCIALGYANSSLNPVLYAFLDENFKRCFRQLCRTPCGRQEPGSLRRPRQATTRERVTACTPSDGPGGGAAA

Molecular target: Delta-type opioid receptor (Mus musculus) (UniProt P32300)
Experiment: Effective dose required for antagonist activity against Opioid receptor delta 1

For `CN(C(=O)Cc1ccc(Cl)c(Cl)c1)C1CCCCC1N1CCCC1` (stereo unspecified), the ED50 ratio was 3.18.
